Assay results taken from patent publication US7994255B2, “Polyorganiosiloxane-containing graft copolymer, resin compositions containing the same and process for produciton of polyorganosiloxane emulsions” (priority 2003, dated 2011).

Experiment: Solubility to water of radical polymerization initiators

Substance: t-butylperoxyisopropyl monocarbonate
- Solubility to water at 20° C. (g/100 g of water): 0.02 g/100 g of water

Substance: t-hexylperoxyisopropyl monocarbonate
- Solubility to water at 20° C. (g/100 g of water): 0.01 g/100 g of water
